## AlphaSeq binding of Ab-14 heavy chain variants to a spike HR2 peptide

Antigen: PDVDLGDISGINAS, a 14-residue peptide of the SARS-CoV-2 spike HR2 region.

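Designed CDR sequences, proposed from the first random library and measured here. Group labels follow the data file (Ctrl: baseline library sampled from a position-specific scoring matrix, with some repeated check sequences; Rand: our label for a block that the file lists under HC and that is probably the random mutants of the ten best first-round binders; En: ensemble of fine-tuned language models; GP: Gaussian process model; GPLM: also part of the Gaussian process libraries; HC: hill climbing; Gen: genetic algorithm; Gibbs: Gibbs sampling; a sequence that several methods proposed may carry one label only). AlphaSeq pools MATa yeast showing the antibodies with MATalpha yeast showing the peptide. Binding brings cells together so that they mate, and sequencing counts the barcode pairs among the diploids. Scores were corrected for input abundance and mapped to Kd with protein pairs of known affinity run in the same pool. Mating was done six times.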

Parent scFv Ab-14: VH joined to VL by a 15-residue (Gly4Ser)3 linker. Changes lie in the heavy chain CDRs alone.
VH: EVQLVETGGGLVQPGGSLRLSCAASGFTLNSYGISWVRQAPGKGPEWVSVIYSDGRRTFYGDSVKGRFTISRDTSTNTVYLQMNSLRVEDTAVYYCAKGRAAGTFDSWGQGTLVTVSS
VL: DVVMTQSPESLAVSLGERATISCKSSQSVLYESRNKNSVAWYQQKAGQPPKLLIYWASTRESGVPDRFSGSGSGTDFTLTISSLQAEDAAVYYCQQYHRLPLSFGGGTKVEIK

Variants are written as CDR1, CDR2 and CDR3 of the heavy chain (limits as in the source). Parent: GFTLNSYGIS, VIYSDGRRTFYGDSVK, GRAAGTFDS. Numbers give log10(Kd / nM), so 0 is 1 nM and 3 is 1 µM. Smaller is tighter. Averages over replicates are reported, and they cover detected replicates only. "nd" means that the variant was in the library but no mating with the target was seen in that replicate; the authors take this as a sign of poor binding, and no number exists. In the paper, a design with two or fewer of six values counts as a poor binder. A sequence measured in both rounds can read differently, since the two assays cover different ranges. Nonspecific signal, from three strains lacking the peptide, appeared in 1% of pairings of all heavy chain designs, centred on 2.08 (5% of these signals below 0.84); values are not corrected for it. The control count says in how many pairings with the empty strains this scFv gave a signal, with their mean in brackets. Of ten entries with the parent sequence, four were seen in most replicates (averages 0.34 to 2.37), three in one and three in none, so single entries are noisy.

| CDR-H1 | CDR-H2 | CDR-H3 | group | log10 Kd (nM) by replicate | log10 Kd (nM), mean | control signals |
|---|---|---|---|---|---|---|
| GFGLNSYGIS | VIYADGRRTFYGDSVK | GRAAGTFDS | GPLM_Gen | 1.73 / 1.71 / 0.70 / 0.82 / 1.65 / 2.32 | 1.49 | 1 of 18 (2.22) |
| GFELGSYGIS | VIYSDGLRTFYGQQVK | GRAKKTFDS | Ctrl | nd / nd / nd / nd / nd / nd | nd | 0 of 18 |
| GFSLNTYGIS | VIYSDGKRTFYADSVK | GRAAGTFDS | GPLM_Gen | 0.46 / 0.61 / 0.32 / 0.05 / 0.32 / 0.07 | 0.30 | 1 of 18 (1.84) |
| GFDLNEYGIS | VIYADGRRTAYTDSVK | GEAAGTFDL | En_HC | -0.29 / -0.52 / -0.35 / -0.56 / 0.01 / 0.13 | -0.26 | 2 of 18 (2.23) |
| GFSLNSYGIS | VIYADGRRTFYGDSVK | GQAAGTFDA | GPLM_Gibbs | 0.09 / 0.82 / -0.65 / -0.45 / -0.85 / -0.77 | -0.30 | 0 of 18 |
| GFTLESYGIS | VIYADGRRTFYGDGVK | GRAAGTFKS | GP_HC | nd / nd / nd / nd / nd / nd | nd | 0 of 18 |
| GFTLNSYGIS | VIYSDGRRTFYADHVK | GEAAGTFDK | GP_Gibbs | 0.19 / nd / nd / -0.54 / nd / nd | -0.18 | 0 of 18 |
| HFTLDSYGIS | VIYSDGRRTFYGDSVK | GRAAGTDLS | Rand | nd / nd / nd / nd / nd / nd | nd | 0 of 18 |
| GFKLNSYGIS | VIYSDGRRTFYIDSVK | GNAAGTFDS | GP_Gen | 2.87 / 1.48 / 0.90 / 0.65 / 1.47 / 1.29 | 1.44 | 0 of 18 |
| GFTLNSYGIS | VIYSDGRRAFYDDSVK | GQLAGTFDS | GPLM_HC | 1.12 / 0.40 / nd / nd / nd / nd | 0.76 | 1 of 18 (0.20) |
| GFTLNSYGIS | VIYSDGKRTFYSDSVK | GKAAGTFDT | GP_Gen | 1.00 / 0.04 / 0.53 / 0.92 / 0.25 / 0.58 | 0.55 | 1 of 18 (2.25) |
| KFTLNSYGIS | VIYSDGRRTFYTDSVK | GQTAGTFDS | GP_HC | nd / nd / nd / 0.64 / nd / nd | 0.64 | 0 of 18 |
| GFNLNEYGIS | VIYADGMRTFYTDSVK | GETAGTFVN | En_HC | 0.30 / -0.32 / 0.03 / -0.06 / -0.60 / 0.08 | -0.09 | 0 of 18 |
| GFDINEYGIS | VIYADGMRTAYSDSVK | GENAGTFDV | En_Gen | -0.35 / -0.15 / -0.60 / -0.17 / -0.61 / -0.35 | -0.37 | 1 of 18 (1.51) |
| GFTLNEYGIS | VIYSDGRRTFYGDSVK | GGAAGAFFS | Ctrl | nd / nd / nd / nd / nd / nd | nd | 1 of 18 (1.51) |
| GFDIEEYGVS | VIYADGNRSQYSDNVK | GIIGDNVVI | En_Gibbs | nd / nd / nd / 2.36 / 1.95 / 2.40 | 2.24 | 0 of 18 |
| GFTLNSYGIS | VIYSDGRRTAYGDSVK | GKAAGTFVS | Ctrl | nd / nd / nd / nd / nd / nd | nd | 1 of 18 (1.54) |
| GFTLNSYGIS | VIYSDGRRTFYSDSVK | GVAGGTFDT | GPLM_HC | 1.90 / 1.10 / 1.23 / 1.35 / 1.50 / 1.78 | 1.48 | 0 of 18 |
| GFNLNSYGIS | VIYSDGRRTFYADAVK | GRLAGTFDS | GP_Gibbs | 1.29 / 1.01 / 1.37 / 1.82 / 1.28 / 1.62 | 1.40 | 0 of 18 |
| GFTLNSYGIS | VIYSDGRRTFYGDSVK | GYAAGFFDS | Ctrl | nd / nd / 3.18 / nd / 2.86 / 2.47 | 2.84 | 0 of 18 |
| GFDLNEYGIS | VIYADGVRTFYADDVK | GENAGTFDV | En_Gen | 0.60 / 0.44 / 0.75 / 0.28 / 0.28 / 0.43 | 0.46 | 0 of 18 |
| GFALDKYGIS | VIYADGSRTVYADDVK | GMLGATFGV | En_Gibbs | nd / nd / nd / nd / nd / nd | nd | 1 of 18 (1.08) |
| GFDLNEYGIS | VIYADGRRTFYADSVK | GENAGTFDF | En_HC | -0.29 / -0.22 / 0.01 / -0.36 / 0.06 / -0.02 | -0.14 | 0 of 18 |
| GFTLNSYGIS | VIYSDGRRTFYGPSVK | GIAAGTFES | Ctrl | nd / nd / nd / nd / nd / nd | nd | 0 of 18 |
| GFDLNEYGIS | VIYADGMRTFYTDSVK | GGNAGTFDV | En_HC | -0.24 / -0.23 / -0.51 / -0.39 / -0.11 / 0.13 | -0.23 | 0 of 18 |
| GFDLNEYGIS | VIYADGRRTAYIDSVK | GHIAGTFDS | En_HC | -0.62 / -0.77 / -0.59 / -0.95 / -0.76 / -0.40 | -0.68 | 1 of 18 (1.70) |
| GFTLNSYSIS | VIYSDGRRTFYRDSVK | GRAAGTFKS | Ctrl | nd / 1.63 / nd / nd / nd / nd | 1.63 | 1 of 18 (1.55) |
| GFDLNEYGIS | VIYADGMRTAYVDSVK | GNTAGTFDQ | En_Gen | 1.42 / 0.91 / 0.07 / -0.50 / -0.35 / 0.08 | 0.27 | 0 of 18 |
| GFDLDEYGIS | VIYADGMRTYYADSVK | GNVAGTFDT | En_Gen | -0.13 / 0.05 / -0.01 / -0.67 / -0.75 / -0.63 | -0.36 | 0 of 18 |
| KFSLNSYGIS | VIYSDGRRTFYSDSVK | GKTAGTFDS | GP_Gen | nd / 0.11 / 0.59 / 0.75 / 0.78 / 1.72 | 0.79 | 1 of 18 (1.29) |
| GFTLNSYGIS | VDYSDGRRCFYGDSVK | GRAAGTFDS | Ctrl | nd / nd / nd / nd / nd / nd | nd | 0 of 18 |
| KFDLNSYGIS | VIYSDGRRTFYGDSVK | GRNAGTFDS | GPLM_Gibbs | 0.95 / nd / nd / nd / 1.34 / 2.26 | 1.52 | 0 of 18 |
| GFDIQEYGIS | VIYADGERVAYTNSVK | GTQSGSNIN | En_Gibbs | nd / nd / nd / nd / 1.45 / nd | 1.45 | 0 of 18 |
| GQDLNEYGIS | VIYADGFRTAYADTVK | GTYGFMLDS | En_Gibbs | nd / 1.15 / nd / nd / 0.82 / 1.70 | 1.22 | 0 of 18 |
| GFDLNEYGIS | VIYADGRRTAYADSVK | GEIAGTFDQ | En_HC | -0.39 / -0.70 / -0.61 / -0.53 / -0.70 / -0.50 | -0.57 | 0 of 18 |
| GFQLNDYGIS | VIYSDGRRTFYIDSVK | GRLAGTFDS | GP_HC | 1.04 / 1.11 / 1.61 / 1.44 / 1.85 / 1.01 | 1.34 | 0 of 18 |
| GFRLNSYGIS | VIYSDGRRTFYGDSVK | GFAAGTFDS | Ctrl | nd / nd / 1.98 / nd / nd / nd | 1.98 | 0 of 18 |

The 6 strongest on average among those seen in every replicate, once more:

CDR-H1	CDR-H2	CDR-H3	group	log10 Kd (nM) by replicate	log10 Kd (nM), mean	control signals
GFDLNEYGIS	VIYADGRRTAYIDSVK	GHIAGTFDS	En_HC	-0.62 / -0.77 / -0.59 / -0.95 / -0.76 / -0.40	-0.68	1 of 18 (1.70)
GFDLNEYGIS	VIYADGRRTAYADSVK	GEIAGTFDQ	En_HC	-0.39 / -0.70 / -0.61 / -0.53 / -0.70 / -0.50	-0.57	0 of 18
GFDINEYGIS	VIYADGMRTAYSDSVK	GENAGTFDV	En_Gen	-0.35 / -0.15 / -0.60 / -0.17 / -0.61 / -0.35	-0.37	1 of 18 (1.51)
GFDLDEYGIS	VIYADGMRTYYADSVK	GNVAGTFDT	En_Gen	-0.13 / 0.05 / -0.01 / -0.67 / -0.75 / -0.63	-0.36	0 of 18
GFSLNSYGIS	VIYADGRRTFYGDSVK	GQAAGTFDA	GPLM_Gibbs	0.09 / 0.82 / -0.65 / -0.45 / -0.85 / -0.77	-0.30	0 of 18
GFDLNEYGIS	VIYADGRRTAYTDSVK	GEAAGTFDL	En_HC	-0.29 / -0.52 / -0.35 / -0.56 / 0.01 / 0.13	-0.26	2 of 18 (2.23)

Reference: Li et al. 2023, doi:10.1038/s41467-023-39022-2. File: FLAb, binding data.